Assay results taken from patent publication US9763910B1, “Combination therapy for treating cancer” (Huanggang Normal University, priority 2016, dated 2017).

Assays:
CL1-5 lung cancer cells [1] = assay: Apoptosis in CL1-5 cells by flow cytometry; type: cell-based, human; conditions: 24 hs; 6.3 μmol/L 5-demethylnobiletin and/or 10 nmol/L docetaxel
Method: (§1) All treatment drugs were prepared in a 10% DMSO solution.
(§2) The treated cells were incubated for 24 hs before collected in a centrifuge tube. The cells were then washed with PBS at 4° C. and n mixed with 70% ethanol pre-cooled at −20° C. before kept at 4° C. overnight. Next, the cells were centrifuged at 1000 rpm to remove ethanol and the cell density was adjusted to (1-2)×10^6 cells/ml by add PBS. Following adding PI and DNase-free RNase to respectively reach final concentrations of 50 μg/ml and 50 µg/ml, the cells were stained for cell cycle and apoptosis studies by flow cytometry. All studies were repeated 3 times and the averages were calculated.

CL1-5 lung cancer cells [2] = assay: Cell cycle distribution in CL1-5 cells by flow cytometry (PI staining); type: cell-based, human; conditions: 24 hs; 6.3 μmol/L 5-demethylnobiletin and/or 10 nmol/L docetaxel
Method: as §1, §2

[3] = test system: CL1-5 human lung cancer cells engrafted in BALB/c nude mice; assay: Tumor growth in CL1-5 cell-engrafted BALB/c nude mice; conditions: 25 μmol docetaxel and/or 15.5 μmol 5-demethylnobiletin once every 2 days for 14 days, sacrificed after another 14 days

| SMILES | percentage of apoptotic cells (CL1-5 lung cancer cells [1]) [%] | G2/M phase cells, share of total cells (CL1-5 lung cancer cells [2]) [%] | average tumor size [3] [mm^3] |
| --- | --- | --- | --- |
| COc1ccc(-c2cc(=O)c3c(O)c(OC)c(OC)c(OC)c3o2)cc1OC [5-Hydroxy-6,7,8,3′,4′-pentamethoxyflavone] | 9.7 | 31.3 |  |
| CC(=O)O[C@@]12CO[C@@H]1C[C@H](O)[C@@]1(C)C(=O)[C@H](O)C3=C(C)[C@@H](OC(=O)[C@H](O)[C@@H](NC(=O)OC(C)(C)C)c4ccccc4)C[C@@](O)([C@@H](OC(=O)c4ccccc4)[C@H]21)C3(C)C [docetaxel, 1,7β,10β-trihydroxy-9-oxo-5β,20-epoxytax-11-ene-2α,4,13α-triyl 4-acetate 2-benzoate 13-{(2R,3S)-3-[(tert-butoxycarbonyl)amino]-2-hydroxy-3-phenylpropanoate}] | 7.8 | 23.5 | 1230 |
